MC4R antag cAMP = blocks human MC4R cAMP signaling; P32245; MC4R-expressing cells, MTII-stimulated cAMP, LANCE TR-FRET; inhibition, % at 6.5 µM; 0.48% of 360,000 active; AID 540295;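 active means inhibition above its plate's cutoff, the mean of tested wells on that plate plus 3 SD, cut at about 29% in these data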;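 further: 0% = Melanotan II alone and 100% = Melanotan II plus saturating MCL0020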
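Material: human MC4R-expressing U2OS cells. Probe or stimulus: Melanotan II challenge. Dosing: 6.5 µM single dose. Times: 30-min compound, 1-h challenge, 1-h detection, room temperature. Technique: TR-FRET with Eu-cAMP and labeled anti-cAMP, 671 nm. Replication: singlicate.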
MC4R ag barr = human MC4R agonism via beta-arrestin; P32245; U2OS MC4R beta-arrestin complementation, luminescence; percent of melanotan II response, DMSO zero; activation, % at 8.9 µM; 0.98% of 360,000 active; AID 540308;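 active means activation above a per-plate cutoff, the mean activation of sample wells on that plate plus 3 SD, cut at about 8% in these data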
CendR NRP1 mod = modulators of CendR peptide binding to human neuropilin-1. inhibition, % at 25 µM. AID 602438. O14786. 0.85% of 360,000 active. FAM-RPARPAR peptide binding to NRP-1, fluorescence polarization;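 active means inhibition or corrected inhibition above about 18%, plus a signal ratio from 0.5 to 1.5, limit read from the data, passing the limit was not always enough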
UUG fidelity = yeast start codon fidelity modulation; AID 602363; activity score, % at 18.7 µM; S. cerevisiae UUG-firefly luciferase reporter, luminescence/redox ratio; 0.13% of 350,000 active;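 active means replicate mean at a twofold rise or more, about +100% in these data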;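 further: firefly luciferase made from a UUG start codon reports start codon fidelity; reporter light over untreated wells divided by growth signal over untreated wells; some hits fall short of that in this replicate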
ASAP1 inh = ASAP1 ArfGAP inhibition | inhibition, % at 16.5 µM | 0.19% of 360,000 active | ASAP1-stimulated ARF1 GTP hydrolysis, GDP FP detection | AID 624377; in the data active means inhibition above about 25%;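 further: 0% = vehicle with enzyme and substrate and 100% = no enzyme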
ARFGAP1 inhibitor = inhibitors of rat ARFGAP1 | AID 651572 | 0.26% of 360,000 active | Arfgap1-stimulated ARF1 GTP hydrolysis, GDP FP detection | inhibition, % at 16.5 µM;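 active means inhibition above a per-plate limit, mean inhibition of low control wells plus 3 SD, cut at about 25% in these data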;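 further: 0% = DMSO wells with enzyme and 100% = wells lacking Arfgap1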
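Material: rat Arfgap1 catalytic domain, aa 1-136; also added: human ARF1(Δ1-17)-GTP substrate; compound dosing: one concentration, 16.5 µM, DMSO 1.26%; incubation: GTP hydrolysis reaction 2 h at 25 °C; measured by: Tracer-displacement fluorescence polarization with EDTA stop, 620/688 nm; evaluation: % inhibition from polarization; repeats: one replicate per compound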
An asterisk follows results filed as active; x = no result given. Shown are actives, neighbours in structure and some others; about 2.3% of the full set was active somewhere.

MC4R antag cAMP | MC4R ag barr | CendR NRP1 mod | UUG fidelity | ASAP1 inh | ARFGAP1 inhibitor | SMILES
-4 | -2 | 32* | -24 | -1 | -10 | NC(=O)C[n+]1cccc2ccccc21
0 | -1 | -30 | 1 | -16 | -1 | O=C(C[n+]1cccc2ccccc21)c1ccc(Br)cc1
7 | -1 | 26* | x | -13 | 5 | COc1ccc(-n2nnnc2SCC(=O)N(C)C2CCS(=O)(=O)C2)cc1 (centres undefined)
4 | 0 | 2 | -20 | 7 | 12 | COc1ccccc1-n1nnnc1SCC(=O)N(C)C1CCS(=O)(=O)C1 (centres undefined)
x | x | x | -5 | x | x | C[C@@H]1CCCCO[C@H](CN(C)C(=O)CCCN(C)C)[C@@H](C)CN([C@H](C)CO)C(=O)c2cc(NC(=O)c3ccccc3)ccc2O1
-6 | 9.3* | -15 | x | 4 | 4 | S=C(N/N=C/c1ccc(Cl)c(Cl)c1)Nc1ccccc1Cl
9 | -3 | 84* | x | 4 | 1 | O=c1[nH]c2ccc([N+](=O)[O-])cc2nc1/C=C(\O)c1ccccc1
-4 | -2 | 4 | 7 | 2 | 10 | COc1ccc(C(=O)Nc2cc3c(cc2N2CCCCC2)n(C)c(=O)n3C)cc1OC
2 | -1 | 28* | -7 | 5 | -5 | COc1cc(C(=O)Nc2cc3c(cc2N2CCCCC2)n(C)c(=O)n3C)cc(OC)c1OC
12 | 8.3* | -6 | -11 | -17 | 10 | COc1ccc(CNC(=O)COC(=O)/C=C/c2cccc(Cl)c2)cc1
14 | 1 | 10 | -5 | 3 | -2 | COc1ccc(CCNC(=O)COC(=O)/C=C/c2cc(OC)ccc2OC)cc1
-2 | -3 | 32* | x | -10 | 1 | COc1ccc(OC)c(/C=C/C(=O)OCC(=O)NCc2ccccc2)c1
x | x | x | 15 | x | x | C[C@@H]1CN([C@@H](C)CO)C(=O)c2cccc(NC(=O)Nc3ccc(F)cc3)c2O[C@H]1CN(C)CC1CCCCC1
x | x | x | 1 | x | x | COc1cccc(S(=O)(=O)Nc2ccc3c(c2)[C@@H]2C[C@H](CC(=O)N(C)C)O[C@H](CO)[C@@H]2O3)c1
x | x | x | -2 | x | x | CN(C)C(=O)C[C@@H]1C=C[C@@H](NC(=O)C2CC2)[C@H](CO)O1
3 | 0 | 26* | -6 | 3 | 5 | O=C1c2ccc(Cl)cc2S(=O)(=O)c2cccc(C(=O)N3CCC(Cc4ccccc4)CC3)c21
1 | 2 | 27* | 11 | 6 | -8 | COc1ccc(CN(CCCN2CCOCC2)C(=O)Nc2cccc(Cl)c2)cc1OC
6 | 0 | 5 | -1 | 13 | 7 | O=C(Nc1cccc(Cl)c1)N(CCN1CCOCC1)Cc1cccc(Cl)c1
-2 | -2 | -6 | 2 | 0 | 2 | Cc1cc(NS(=O)(=O)c2ccc(NC(=O)Cc3ccccc3)cc2)nc(C)n1
13 | 0 | 45* | 0 | 4 | 3 | Cc1cc(NS(=O)(=O)c2ccc(NC(=O)CCCC(=O)O)cc2)nc(C)n1

6 compounds drawn at random from the list so far:
MC4R antag cAMP | MC4R ag barr | CendR NRP1 mod | UUG fidelity | ASAP1 inh | ARFGAP1 inhibitor | SMILES
6 | 0 | 5 | -1 | 13 | 7 | O=C(Nc1cccc(Cl)c1)N(CCN1CCOCC1)Cc1cccc(Cl)c1
1 | 2 | 27* | 11 | 6 | -8 | COc1ccc(CN(CCCN2CCOCC2)C(=O)Nc2cccc(Cl)c2)cc1OC
13 | 0 | 45* | 0 | 4 | 3 | Cc1cc(NS(=O)(=O)c2ccc(NC(=O)CCCC(=O)O)cc2)nc(C)n1
x | x | x | 1 | x | x | COc1cccc(S(=O)(=O)Nc2ccc3c(c2)[C@@H]2C[C@H](CC(=O)N(C)C)O[C@H](CO)[C@@H]2O3)c1
x | x | x | 15 | x | x | C[C@@H]1CN([C@@H](C)CO)C(=O)c2cccc(NC(=O)Nc3ccc(F)cc3)c2O[C@H]1CN(C)CC1CCCCC1
3 | 0 | 26* | -6 | 3 | 5 | O=C1c2ccc(Cl)cc2S(=O)(=O)c2cccc(C(=O)N3CCC(Cc4ccccc4)CC3)c21

Further compounds follow:
MC4R antag cAMP | MC4R ag barr | CendR NRP1 mod | UUG fidelity | ASAP1 inh | ARFGAP1 inhibitor | SMILES
x | x | x | 23 | x | x | C[C@H](CO)N1C[C@H](C)[C@H](CN(C)C(=O)Nc2ccc(F)cc2)Oc2ncc(C#CCN(C)C)cc2C1=O
-6 | 0 | 28* | x | 2 | -7 | CCOc1cnn(Cc2ccccc2)c(=O)c1SCc1ccccc1
14 | 21* | 10 | -14 | 7 | 8 | CCc1ccc(OCC(=O)Nc2ccc(S(=O)(=O)N3CCCC3)cc2)c(Br)c1
-6 | 3 | 32* | -6 | 1 | 2 | Cc1ccc(OCC(=O)Nc2ccc(C)c(S(=O)(=O)N3CCCCCC3)c2)c([N+](=O)[O-])n1
12 | 1 | 25* | 3 | -4 | 6 | O=C(COc1ccc(Br)cc1CO)Nc1ccc(S(=O)(=O)N2CCCCC2)cc1
x | x | x | -15 | x | x | O=C(C[C@@H]1C[C@@H]2c3cc(NC(=O)Cc4ccncc4)ccc3O[C@@H]2[C@H](CO)O1)NCc1ccc2c(c1)OCO2
3 | 3 | 6 | -6 | 1 | -3 | COc1ccc(S(=O)(=O)Nc2cccc(S(=O)(=O)N3CCCCCC3)c2)cc1
13 | 8.5* | 2 | 8 | 10 | -4 | O=S(=O)(Nc1nc2ccccc2nc1Nc1cccc(S(=O)(=O)N2CCCCC2)c1)c1ccccc1
5 | -2 | 21* | 2 | -7 | -16 | COc1ccccc1-n1c(SCC(=O)N2CCCC2)nnc1-c1ccccc1
2 | -3 | 21* | -4 | -8 | 1 | CCn1nc(C)c(CN2CCC(n3nccc3NC(=O)Cc3ccccc3)CC2)c1C
-5 | 8.3* | -5 | -11 | -5 | 6 | COc1ccc(N=C2SC(CC(=O)Nc3ccccc3)C(=O)N2Cc2ccco2)cc1 (centres undefined)
2 | 9.2* | 4 | 9 | -5 | -9 | Cc1cc(C)c2sc(N(CCN(C)C)C(=O)CCS(=O)(=O)c3ccccc3)nc2c1
-4 | 8.6* | 3 | 8 | -5 | 4 | CN(C)CCCN(C(=O)c1ccc2c(c1)CCCC2)c1nc2cc3c(cc2s1)OCO3
2 | 32* | 8 | -4 | 4 | -13 | COc1ccc2sc(N(CCCN(C)C)C(=O)c3ccc(S(=O)(=O)N4CCc5ccccc5C4)cc3)nc2c1
8 | 8.7* | 10 | -7 | 5 | 1 | Cc1ccc2nc(N(CCCN(C)C)C(=O)c3ccc(S(=O)(=O)N4CCc5ccccc5C4)cc3)sc2c1
6 | 1 | 3 | 17 | -1 | 13 | Cc1cccc2sc(N(CCCN(C)C)C(=O)c3ccc(S(=O)(=O)N4CCc5ccccc5C4)cc3)nc12
x | x | x | -1 | x | x | O=C(C[C@@H]1C[C@@H]2c3cc(NC(=O)C4CCOCC4)ccc3O[C@@H]2[C@H](CO)O1)NCCc1ccccc1
x | x | x | -7 | x | x | CO[C@H]1CN(C)C(=O)c2cc(NS(C)(=O)=O)ccc2OC[C@@H](C)N(CC2CC2)C[C@@H]1C
x | x | x | 15 | x | x | C[C@H](CO)N1C[C@H](C)[C@H](CN(C)C(=O)CC2CC2)Oc2ncc(C#Cc3cccnc3)cc2C1=O
6 | 17* | 8 | -6 | -9 | 13 | CN(C)CCCN(C(=O)c1ccc(S(=O)(=O)N2CCc3ccccc3C2)cc1)c1nc2ccc(F)cc2s1
-1 | 39* | 14 | -9 | x | x | Cc1cc(C)c2sc(N(CCCN(C)C)C(=O)c3ccc(S(=O)(=O)N4CCc5ccccc5C4)cc3)nc2c1
x | x | x | 32 | x | x | COCC(=O)Nc1ccc2c(c1)C(=O)N(C)C[C@@H](OC)[C@@H](C)CN(C(=O)c1cnccn1)[C@@H](C)CO2
x | x | x | -2 | x | x | C[C@H]1CN([C@@H](C)CO)C(=O)c2cccc(NS(=O)(=O)c3ccc(F)cc3)c2O[C@@H]1CN(C)Cc1ccc(C(F)(F)F)cc1
3 | -2 | 22* | 6 | 1 | 14 | COc1ccc(N2C(=O)CCC(C(=O)NCc3ccccn3)C2c2ccc(OC)c(OC)c2)cc1 (centres undefined)
